Data reported in ChEMBL document CHEMBL1201862, “PubChem BioAssay data set” (2004).

Key:
Assay in all cases: growth of human tumour cells (NCI), 48 h
NCI-H23 = tested on: NCI-H23
MDA-N = tested on: MDA-N
SK-MEL-2 = tested on: SK-MEL-2
RXF 393 = tested on: RXF 393
SW-620 = tested on: SW-620
M14 = tested on: M14
Malme-3M = tested on: Malme-3M
MDA-MB-231 = tested on: MDA-MB-231
LOX IMVI = tested on: LOX IMVI
SF-539 = tested on: SF-539
T47D = tested on: T47D
SNB-75 = tested on: SNB-75
PC-3 = tested on: PC-3
SNB-19 = tested on: SNB-19
SK-MEL-28 = tested on: SK-MEL-28
SK-OV-3 = tested on: SK-OV-3
OVCAR-4 = tested on: OVCAR-4
HOP-62 = tested on: HOP-62
COLO 205 = tested on: COLO 205
DU-145 = tested on: DU-145
BT-549 = tested on: BT-549
OVCAR-3 = tested on: OVCAR-3
A549 = tested on: A549
NCI-H460 = tested on: NCI-H460
DMS-114 = tested on: DMS-114
SK-MEL-5 = tested on: SK-MEL-5
SN12C = tested on: SN12C
M19-MEL = tested on: M19-MEL
HT-29 = tested on: HT-29
OVCAR-8 = tested on: OVCAR-8

**Q.** How did the GI50 (NCI-H23) turn out when `CC1C(=O)C(C)C(c2ccccc2)N(C)C1c1ccccc1` (stereo not given) was run?
**A.** inactive: > 100000 nM

**Q.** How did the GI50 (MDA-N) turn out when `O=C1c2c(O)ccc(O)c2C(=O)c2c(NCCNCCO)ccc(NCCNCCO)c21` [MITOXANTRONE HYDROCHLORIDE] was run?
**A.** active: 234 nM

**Q.** And the GI50 (SK-MEL-2)?
**A.** active: 389 nM

**Q.** What about the GI50 (RXF 393) of the same compound?
**A.** active: 65.2 nM

**Q.** What about the GI50 (SW-620) of the same compound?
**A.** active: 54.2 nM

**Q.** And the GI50 (M14)?
**A.** active: 118 nM

**Q.** What about the GI50 (Malme-3M) of the same compound?
**A.** active: 120 nM

**Q.** What about the GI50 (MDA-MB-231) of the same compound?
**A.** active: 201 nM

**Q.** What about the GI50 (LOX IMVI) of the same compound?
**A.** active: 20.6 nM

**Q.** And the GI50 (SF-539)?
**A.** active: 17.8 nM

**Q.** And the GI50 (T47D)?
**A.** active: 63 nM

**Q.** What about the GI50 (SNB-75) of the same compound?
**A.** active: 14.1 nM

**Q.** What about the GI50 (PC-3) of the same compound?
**A.** active: 141 nM

**Q.** What about the GI50 (SNB-19) of the same compound?
**A.** active: 15.4 nM

**Q.** What about the GI50 (SK-MEL-28) of the same compound?
**A.** active: 468 nM

**Q.** And the GI50 (SK-OV-3)?
**A.** active: 43 nM

**Q.** What about the GI50 (OVCAR-4) of the same compound?
**A.** active: 332 nM

**Q.** And the GI50 (HOP-62)?
**A.** active: 12.8 nM

**Q.** What about the GI50 (COLO 205) of the same compound?
**A.** active: 108 nM

**Q.** And the GI50 (DU-145)?
**A.** active: 33.7 nM

**Q.** What about the GI50 (BT-549) of the same compound?
**A.** active: 70.3 nM

**Q.** And the GI50 (OVCAR-3)?
**A.** active: 285 nM

**Q.** And the GI50 (A549)?
**A.** active: 11.4 nM

**Q.** And the GI50 (NCI-H460)?
**A.** active: 5.64 nM

**Q.** What about the GI50 (DMS-114) of the same compound?
**A.** active: 11.5 nM

**Q.** What about the GI50 (SK-MEL-5) of the same compound?
**A.** active: 55.2 nM

**Q.** And the GI50 (SN12C)?
**A.** active: 7.83 nM

**Q.** What about the GI50 (M19-MEL) of the same compound?
**A.** active: 91.4 nM

**Q.** And the GI50 (HT-29)?
**A.** active: 249 nM

**Q.** What about the GI50 (OVCAR-8) of the same compound?
**A.** active: 36.8 nM

Where a name gives a salt, the structure may show the parent alone.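 96-well plates; 48 h exposure; 5 concentrations. Endpoints by linear interpolation between flanking doses. Not reached: highest tested concentration assigned. Here, GI50 denotes the concentration required for 50% inhibition of growth.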 The source made the active and inactive calls. No stated cut-off is given here; in the data, active = GI50 up to about 1.1 µM and inactive = higher.
